Hits are enriched below; roughly 0.43% of the tested compounds scored in any of these assays.
HCMV NEC inh: inhibitors of HCMV UL50-UL53 interaction, biochemical, HTRF; HCMV UL50-UL53 nuclear egress complex (human cytomegalovirus); normalized percent inhibition; inhibition, % (concentration not given with the values); 0.15% of 190,000 active; AID 1918969, 2023; in the data active = inhibition above about 27%, passing the limit was not always enough
GIV Gai3 FP: inhibitors of GIV peptide binding to Galpha-i3, primary screen, biochemical, fluorescence polarization, FITC-GIV GBA peptide, rat Galphai3. Guanine nucleotide-binding protein G(i) subunit alpha-3 (Rattus norvegicus), P08753. 90 min; stronger effect = lower value; scaled: aluminum fluoride 0%, vehicle 100%. percent of control (FP), % (test concentration not listed). hit rate 0.42% among 210,000. AID 1224905, 2016;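 active = replicate mean at 85% of control or lower, very high polarization wells dropped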;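 note: wells of about 15 µL received 100 nL stock; the first replicate is given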
GIV Gai FP conf: inhibitors of GIV peptide binding to Galpha-i3, confirmation, biochemical, fluorescence polarization, FITC-GIV peptide, rat Galphai3 | fluorescence polarization, mP at 100 µM | stronger effect = lower value | 38% of 580 active | shares compounds with GIV Gai3 FP;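 active = inhibition score of 15 or more, meaning 100 minus mean polarization as percent of control over three replicates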
GIV Gai AS conf: inhibitors of GIV binding to Galpha-i3, confirmation, orthogonal assay for GIV-Galpha-i inhibitor project, biochemical, AlphaScreen, His-GIV, GST-Galphai3; shares compounds with GIV Gai3 FP; purified proteins, 90 min; stronger effect = lower value; AlphaScreen counts at 100 µM; 39% of 580 active;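 active = inhibition score at or above a set limit, where the score is 100 minus the three-replicate mean percent of control signal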
The depositor's hits bear a star.

Sequences of proteins named here, by UniProt entry; tags and fusion partners are left off.
Guanine nucleotide-binding protein G(i) subunit alpha-3 (Rattus norvegicus), P08753, UniProt P08753, whole entry, looked up: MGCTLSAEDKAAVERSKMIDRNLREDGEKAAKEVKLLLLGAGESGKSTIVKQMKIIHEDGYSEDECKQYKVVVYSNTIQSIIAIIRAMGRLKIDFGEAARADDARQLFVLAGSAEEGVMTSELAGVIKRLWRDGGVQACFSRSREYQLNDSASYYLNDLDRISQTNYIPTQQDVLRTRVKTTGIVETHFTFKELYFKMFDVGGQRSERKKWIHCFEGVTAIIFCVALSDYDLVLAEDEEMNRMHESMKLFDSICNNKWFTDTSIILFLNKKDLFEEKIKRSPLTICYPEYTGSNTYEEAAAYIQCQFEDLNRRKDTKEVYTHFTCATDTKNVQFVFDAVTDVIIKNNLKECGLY

For CCN(CC)c1ccc(-c2c(C#N)c(N)nc(OC)c2C#N)cc1 the results were HCMV NEC inh -22, GIV Gai3 FP 31*, GIV Gai FP conf 84 and GIV Gai AS conf 47104.
Screening CCOc1ccccc1-c1c(C#N)c(N)nc(OC)c1C#N returned HCMV NEC inh -13 and GIV Gai3 FP 103.
For CN(C)c1ccc(/C=C/C=N/N=c2/sc3ccccc3n2C)cc1 the results were HCMV NEC inh -11, GIV Gai3 FP 98, GIV Gai FP conf 86 and GIV Gai AS conf 34665.
Screening Cc1c(/C=N/N=c2\sc3ccccc3n2C)n(C)n(-c2ccccc2)c1=O returned HCMV NEC inh -24.
CCOC(=O)c1c(C)[nH]c(C)c1S(=O)(=O)N1CCCC(C(=O)NCc2cccnc2)C1 (configuration not stated) was read as HCMV NEC inh 9 and GIV Gai3 FP 105.
O=S(=O)(Nc1cc(Br)c(O)c2ccccc12)c1ccc(Cl)cc1 was read as HCMV NEC inh 8.
For COc1cccc(NC(=O)CSc2nc(-c3ccccc3)nc3cc(=O)[nH]n23)c1 the results were HCMV NEC inh -23 and GIV Gai3 FP 97.
For CCC1Oc2ccccc2C(=O)N(CC(=O)c2ccc(S(=O)(=O)N3CCOCC3)cc2)C1=O (configuration not stated) the results were HCMV NEC inh -26 and GIV Gai3 FP 108.
`CNC(=O)CCCc1nc(-c2ccc(OC)cc2)no1` gave HCMV NEC inh -6 and GIV Gai3 FP 101.
`COc1ccc(-c2noc(CCCC(=O)Nc3nccs3)n2)cc1` gave HCMV NEC inh -18, GIV Gai3 FP 91, GIV Gai FP conf 65 and GIV Gai AS conf 44685.

Next section (4 carried over from the part before).
For COc1cccc(NC(=O)CSc2nc(-c3ccccc3)nc3cc(=O)[nH]n23)c1 the results were HCMV NEC inh -23 and GIV Gai3 FP 97.
For CCC1Oc2ccccc2C(=O)N(CC(=O)c2ccc(S(=O)(=O)N3CCOCC3)cc2)C1=O (configuration not stated) the results were HCMV NEC inh -26 and GIV Gai3 FP 108.
`CNC(=O)CCCc1nc(-c2ccc(OC)cc2)no1` gave HCMV NEC inh -6 and GIV Gai3 FP 101.
`COc1ccc(-c2noc(CCCC(=O)Nc3nccs3)n2)cc1` gave HCMV NEC inh -18, GIV Gai3 FP 91, GIV Gai FP conf 65 and GIV Gai AS conf 44685.
`CCOC(=O)c1cc(C)nn1-c1ccccc1` gave HCMV NEC inh -1 and GIV Gai3 FP 97.
O=C(NCCCN1CCOCC1)c1nn2c(C(F)(F)F)cc(-c3ccc(Cl)cc3)nc2c1Cl was read as HCMV NEC inh -10 and GIV Gai3 FP 106.
CCc1ccc(S(=O)(=O)/N=C2\C=CC(=O)c3ccccc32)cc1 was read as GIV Gai3 FP 5.6*, GIV Gai FP conf 12* and GIV Gai AS conf 1607*.
For CCc1ccc(S(=O)(=O)/N=C2/C=C(Nc3ccccc3)C(=O)c3ccccc32)cc1 the results were GIV Gai3 FP 101.
`CC(=O)Nc1cccc(-c2nc(-c3ccc4c(c3)[nH]c(=O)n4C)no2)c1C` gave HCMV NEC inh 10 and GIV Gai3 FP 107.
For C=CCn1c(SCC(=O)Nc2ccc3c(c2)OCO3)nnc1-c1ccccc1F the results were HCMV NEC inh -8.
For CCc1nc(-c2cc(S(=O)(=O)N3CCCC(C(=O)Nc4ccc5c(c4)OCO5)C3)c(C)s2)no1 (configuration not stated) the results were HCMV NEC inh -11 and GIV Gai3 FP 107.
`O=C(O)C1CC(=O)N(Cc2ccc(F)cc2)C1` (configuration not stated) gave GIV Gai3 FP 99.
Screening O=C(O)C1CC(=O)N(Cc2ccc3c(c2)OCO3)C1 (configuration not stated) returned HCMV NEC inh 30, GIV Gai3 FP 51*, GIV Gai FP conf 18* and GIV Gai AS conf 1816*.
Screening OC1CCN(Cc2cccc(Br)c2)CC1 returned HCMV NEC inh 4 and GIV Gai3 FP 100.
For CCOc1ccc(NC(=O)CSC2=C(C#N)C(c3ccccc3[N+](=O)[O-])CC(=O)N2)cc1 (configuration not stated) the results were GIV Gai3 FP 103.
COc1ccc(N2C(=O)/C(=C\c3ccco3)N=C2SCC(=O)c2c(N)n(C)c(=O)n(C)c2=O)cc1Cl was read as HCMV NEC inh -26.
`COc1ccc(/C=C2\C=C(c3ccccc3)N(c3ccc(Br)cc3)C2=O)cc1Br` gave GIV Gai3 FP 110.
For COc1ccc(/C=C2\C=C(c3ccccc3)N(c3ccc(Br)cc3)C2=O)cc1 the results were GIV Gai3 FP 102.
Screening COc1ccc(/C=C2\C=C(c3ccccc3)N(c3cccc(C(C)=O)c3)C2=O)cc1Br returned GIV Gai3 FP 78*, GIV Gai FP conf 73 and GIV Gai AS conf 38656.
COC(=O)c1cc(N2C(=O)/C(=C/c3ccc(OC)c(Br)c3)C=C2c2ccccc2)ccc1Cl was read as GIV Gai3 FP 7.0*, GIV Gai FP conf 62 and GIV Gai AS conf 49090.
`COc1ccc(N2C(=O)/C(=C/c3ccc(Cl)cc3)C=C2c2ccccc2)cc1` gave GIV Gai3 FP 82*, GIV Gai FP conf 77 and GIV Gai AS conf 32406.
Screening COc1ccc(/C=C2\C=C(c3ccccc3)N(c3ccc(Cl)c(Cl)c3)C2=O)cc1Br returned GIV Gai3 FP 119.
Screening COc1ccc(/C=C2\C=C(c3ccccc3)N(c3cccnc3)C2=O)cc1Br returned GIV Gai3 FP 44*, GIV Gai FP conf 66 and GIV Gai AS conf 45797.
Screening COc1ccc(/C=C2\C=C(c3ccccc3)N(c3ccc(O)cc3)C2=O)cc1Br returned GIV Gai3 FP 111.
Cc1ccc(Cc2nc(CCNC(=O)Nc3cccc(Br)c3)n[nH]2)cc1 was read as GIV Gai3 FP 101.
`O=C(CSc1ccccc1)N1CCC2(CC1)Nc1ccccc1-n1cccc12` gave HCMV NEC inh -39 and GIV Gai3 FP 102.
Screening Cc1noc(C)c1S(=O)(=O)Nc1ccc2[nH]c(=O)oc2c1 returned HCMV NEC inh 6 and GIV Gai3 FP 107.
For Cc1ccc2c(c1)OC=CC(C(=O)NC1CCCC1)=C2 the results were HCMV NEC inh -47 and GIV Gai3 FP 105.
`CCCc1nc2nc(C)c(NS(=O)(=O)Cc3ccccc3)c(=O)n2[nH]1` gave HCMV NEC inh -34 and GIV Gai3 FP 104.
Screening CCc1ccc2[nH]c(=O)c(C(c3nnnn3C(C)(C)C)N3CCc4ccccc43)cc2c1 (configuration not stated) returned HCMV NEC inh -14 and GIV Gai3 FP 104.
`CCOC(=O)c1[nH]c2ccccc2c1CCC(=O)O` gave HCMV NEC inh -36 and GIV Gai3 FP 98.
For CCN(C(=O)Cc1nc(-c2ccc(OC)cc2)no1)c1ccccc1 the results were HCMV NEC inh -36 and GIV Gai3 FP 99.
Screening CSc1nnc2c(n1)OC(c1cccs1)Nc1ccccc1-2 (configuration not stated) returned HCMV NEC inh -37, GIV Gai3 FP 53*, GIV Gai FP conf 61 and GIV Gai AS conf 27085*.
For COc1cc(C2Nc3ccccc3-c3nnc(SC)nc3O2)cc(Br)c1O (configuration not stated) the results were HCMV NEC inh -51 and GIV Gai3 FP 105.
For CCCSc1nnc2c(n1)OC(c1cccs1)Nc1ccccc1-2 (configuration not stated) the results were HCMV NEC inh -31 and GIV Gai3 FP 103.
